Assay results taken from patent US8030543B2, “Efficient transformation method for sunflower and oil seeds based on positive selection” (Avesthagen Limited, priority 2006, dated 2011).

Tested on: Helianthus annuus CMS234B split embryonic axis (SEA) explants
Assay: Negative selection and regeneration of sunflower SEA explants transformed with pCAMBIA-1301 on media containing Hygromycin
Details: for No of PCR +ve explants / No. of explants Regenerating into shootlets / No. of explants surviving I selection (15 days) / No. of explants surviving I selection (21 days) / No. of explants surviving II selection (15 days) / PCR +ve Regenerants: 100 explants infected, pCAMBIA-1301

CN[C@@H]1C[C@H](N)[C@@H](O)[C@H](O[C@H]2O[C@H](CO)[C@H](O)[C@@H]3O[C@@]4(O[C@@H]23)O[C@H]([C@H](N)CO)[C@H](O)[C@H](O)[C@H]4O)[C@H]1O
No of PCR +ve explants (Hygromycin 15 mg/l): 27
No. of explants Regenerating into shootlets (Hygromycin 15 mg/l): 7
No. of explants surviving I selection (15 days) (Hygromycin 15 mg/l): 65
No. of explants surviving I selection (21 days) (Hygromycin 15 mg/l): 50
No. of explants surviving II selection (15 days) (Hygromycin 15 mg/l): 43
PCR +ve Regenerants (Hygromycin 15 mg/l): 3
No of PCR +ve explants (Hygromycin 20 mg/l): 20
No. of explants Regenerating into shootlets (Hygromycin 20 mg/l): 5
No. of explants surviving I selection (15 days) (Hygromycin 20 mg/l): 58
No. of explants surviving I selection (21 days) (Hygromycin 20 mg/l): 42
No. of explants surviving II selection (15 days) (Hygromycin 20 mg/l): 28
PCR +ve Regenerants (Hygromycin 20 mg/l): 2
No of PCR +ve explants (Hygromycin 25 mg/l): 15
No. of explants Regenerating into shootlets (Hygromycin 25 mg/l): 3
No. of explants surviving I selection (15 days) (Hygromycin 25 mg/l): 50
No. of explants surviving I selection (21 days) (Hygromycin 25 mg/l): 30
No. of explants surviving II selection (15 days) (Hygromycin 25 mg/l): 17
PCR +ve Regenerants (Hygromycin 25 mg/l): 2
No of PCR +ve explants (Hygromycin 30 mg/l): 12
No. of explants Regenerating into shootlets (Hygromycin 30 mg/l): 1
No. of explants surviving I selection (15 days) (Hygromycin 30 mg/l): 45
No. of explants surviving I selection (21 days) (Hygromycin 30 mg/l): 22
No. of explants surviving II selection (15 days) (Hygromycin 30 mg/l): 12
PCR +ve Regenerants (Hygromycin 30 mg/l): 1
shoots per explants (clustered and stunted shoots on Hygromycin medium): 1-2
regeneration efficiency (even at low concentrations of Hygromycin): very low
appearance of buds put forth by explants (explants growing on Hygromycin media): stunted and hydric
toxic effect on the explants (transformed SEA explants, Hygromycin compared with Xylose selection, after 2 weeks of selection): greater toxic effect on the explants than Xylose
